# Assays:
# Assay type in all cases: in vivo, rats
# Details in all cases: 3 mg/kg ziprasidone
# [1] = tested on: serotonin (5HT) in medial prefrontal cortex; assay: Brain microdialysis: serotonin in mPFC
# Text: (§1) 62 adult Sprague-Dawley male rats (Harland, Indianapolis) weighing 300-350 g were used in the following studies. The rats were quarantined for at least five days in group housing. Following the quarantine procedure, rats were maintained in individual cages. For surgical implantation with intracerebral guides, guides were inserted directly above either the hypothalamus (HT) (31 rats), or the medial prefrontal cortex (mPFC) (31 rats). Stereotaxic coordinates (Paxinos and Watson, 1986) provided below were used to position the guide cannulae and/or probes: Animals were anesthetiszed according using standard procedures. The head of each animal was shaved from the front of the eyes to the back of the skull. Shaved areas were disinfected, and the animals were placed in stereotaxic frame ear bars. The animal was aligned with the incisor bar. The animal's scalp was cut with a sharp #15 scalpel blade. If the bone began to bleed, bone wax was applied to the incision. Periosteal tissue was cleaned from the skull to the lateral ridges with a cotton swab, and clamps were used to pull the skin out of the way. The probe or guide was placed in the clamp, such that the angled outlet cannula of the microdialysis probe was angled towards the animal's tail. The target coordinates were calculated, and this point was marked on the skull. Two holes in opposing skull bones were drilled for bone anchor screws and thread screws. The dura was torn away with a sharp, pointed object. The guide cannulae were placed at the dorsal/ventral zero point. […] Using dental acrylic, the cannulae were cemented to the bone anchor screws. The cement was allowed to harden and the rodent was removed from the stereotaxic frame. The cranial and caudal aspects of the incision were sutured. The animals were allowed to recover for three to five days. Stylets in the guides were replaced with dialysis probes on the evening prior to study to allow for animal acclimation and to reestablish the integrity of the blood brain barrier. […] Rats were weighed pre-surgery, every 1-2 days post-surgery until time of microdialysis, and postmortem. Microdialysis probes used in the experiments described below were first soaked in standard Ringer's perfusion medium for 30 minutes. Inlet and outlet tubing was connected to each probe using flanged connectors. The outlet tubing was connected to a fraction collector, and the inlet was connected to and […] syringe drive. The probes were immersed in fresh Ringer's solution and flushed with Ringer's perfusion medium at a rate of 2 μl/min for 1 hour. The probe was then transferred to the intracerebral guide on the rat's skull. […] Water was added to obtain a final concentration of 0.3 mg/ml. Ziprasidone was administered to rats at a final concentration of 3 mg/kg intraperitoneally. 1.2 ml of water was added to a single vial of GEODON® (containing 20 mg ziprasidone and 4.7 mg methanesulfonic acid solubilized by 294 mg of sulfobutylether b-cyclodextrin sodium). Water was added to obtain a final concentration of 3 mg/ml ziprasidone. Zonisamide was administered to rats in a final concentration of 25 mg/kg intraperitoneally in a vehicle of 13.4% EtOH, 20.1% propylene glycol, 66.5% saline. Zonisamide was dissolved in DMSO. […] The final concentration of zonisamide was 7.5 mg/ml. The drug solution was maintained at 37° C. prior to injection. The rats were divided into ten test groups. Five animals were analyzed for each test group. The test groups were as follows: For the microdialysis experiments, perfusion consisted of 2 μl/min delivery of sterile standard Ringer's solution for intervals of 20 minutes. Final collection volumes were 40 μl. 30 μl samples were analyzed for each analyte: DA, NE, 5HT. 12 pre-dose samples and 12 post dose samples were collected every 20 minutes for a duration of 4 hours, both pre-dose and post-dose. Six samples from the pre-dose and post-dose collections were analyzed for norepinephrine. […]
# [2] = tested on: dopamine (DA) in hypothalamus; assay: Brain microdialysis: dopamine in hypothalamus
# Text: as §1
# [3] = tested on: norepinephrine (NE) in medial prefrontal cortex; assay: Brain microdialysis: norepinephrine in mPFC
# Text: as §1
# [4] = tested on: dopamine (DA) in medial prefrontal cortex; assay: Brain microdialysis: dopamine in mPFC
# Text: as §1
# [5] = tested on: serotonin (5HT) in hypothalamus; assay: Brain microdialysis: serotonin in hypothalamus
# Text: as §1
# [6] = tested on: norepinephrine (NE) in hypothalamus; assay: Brain microdialysis: norepinephrine in hypothalamus
# Text: as §1
compound,measurement,setting,value
O=C1Cc2cc(CCN3CCN(c4nsc5ccccc45)CC3)c(Cl)cc2N1 [ziprasidone],Serotonin concentrations in mPFC,[1]; 3 HOUR AVE,88.108 % baseline
same,Serotonin concentrations in mPFC,[1]; 40 min post dose,100.119 % baseline
same,Serotonin concentrations in mPFC,[1]; 80 min post dose,80.736 % baseline
same,Serotonin concentrations in mPFC,[1]; 120 min post dose,80.678 % baseline
same,Serotonin concentrations in mPFC,[1]; 160 min post dose,76.032 % baseline
same,Serotonin concentrations in mPFC,[1]; 200 min post dose,96.412 % baseline
same,Serotonin concentrations in mPFC,[1]; 240 min post dose,82.843 % baseline
same,Serotonin concentrations in mPFC,[1]; -20 min pre dose,103.695 % baseline
same,Serotonin concentrations in mPFC,[1]; -60 min pre dose,101.254 % baseline
same,Serotonin concentrations in mPFC,[1]; -100 min pre dose,95.050 % baseline
same,Dopamine concentrations in hypothalamus,[2]; 3 HOUR AVE,122.276 % baseline
same,Dopamine concentrations in hypothalamus,[2]; 40 min post dose,155.264 % baseline
same,Dopamine concentrations in hypothalamus,[2]; 80 min post dose,133.547 % baseline
same,Dopamine concentrations in hypothalamus,[2]; 120 min post dose,119.303 % baseline
same,Dopamine concentrations in hypothalamus,[2]; 160 min post dose,108.156 % baseline
same,Dopamine concentrations in hypothalamus,[2]; 200 min post dose,114.436 % baseline
same,Dopamine concentrations in hypothalamus,[2]; 240 min post dose,96.372 % baseline
same,Dopamine concentrations in hypothalamus,[2]; -20 min pre dose,96.640 % baseline
same,Dopamine concentrations in hypothalamus,[2]; -60 min pre dose,110.026 % baseline
same,Dopamine concentrations in hypothalamus,[2]; -100 min pre dose,93.334 % baseline
same,Norepinephrine concentrations in mPFC,[3]; 3 HOUR AVE,140.23 % baseline
same,Norepinephrine concentrations in mPFC,[3]; 20 min post dose,152.679 % baseline
same,Norepinephrine concentrations in mPFC,[3]; 60 min post dose,173.477 % baseline
same,Norepinephrine concentrations in mPFC,[3]; 100 min post dose,139.468 % baseline
same,Norepinephrine concentrations in mPFC,[3]; 140 min post dose,135.555 % baseline
same,Norepinephrine concentrations in mPFC,[3]; 180 min post dose,120.130 % baseline
same,Norepinephrine concentrations in mPFC,[3]; 220 min post dose,120.068 % baseline
same,Norepinephrine concentrations in mPFC,[3]; -40 min pre dose,102.187 % baseline
same,Norepinephrine concentrations in mPFC,[3]; -80 min pre dose,96.063 % baseline
same,Norepinephrine concentrations in mPFC,[3]; -120 min pre dose,101.750 % baseline
same,Dopamine concentrations in mPFC,[4]; 3 HOUR AVE,180.798 % baseline
same,Dopamine concentrations in mPFC,[4]; 40 min post dose,224.637 % baseline
same,Dopamine concentrations in mPFC,[4]; 80 min post dose,220.406 % baseline
same,Dopamine concentrations in mPFC,[4]; 120 min post dose,204.006 % baseline
same,Dopamine concentrations in mPFC,[4]; 160 min post dose,155.426 % baseline
same,Dopamine concentrations in mPFC,[4]; 200 min post dose,144.584 % baseline
same,Dopamine concentrations in mPFC,[4]; 240 min post dose,109.557 % baseline
same,Dopamine concentrations in mPFC,[4]; -20 min pre dose,105.629 % baseline
same,Dopamine concentrations in mPFC,[4]; -60 min pre dose,88.131 % baseline
same,Dopamine concentrations in mPFC,[4]; -100 min pre dose,106.240 % baseline
same,Serotonin concentrations in hypothalamus,[5]; 3 HOUR AVE,122.083 % baseline
same,Serotonin concentrations in hypothalamus,[5]; 40 min post dose,147.484 % baseline
same,Serotonin concentrations in hypothalamus,[5]; 80 min post dose,131.609 % baseline
same,Serotonin concentrations in hypothalamus,[5]; 120 min post dose,122.447 % baseline
same,Serotonin concentrations in hypothalamus,[5]; 160 min post dose,127.006 % baseline
same,Serotonin concentrations in hypothalamus,[5]; 200 min post dose,140.594 % baseline
same,Serotonin concentrations in hypothalamus,[5]; +220 min post dose,88.071 % baseline
same,Serotonin concentrations in hypothalamus,[5]; -20 min pre dose,105.804 % baseline
same,Serotonin concentrations in hypothalamus,[5]; -60 min pre dose,109.552 % baseline
same,Serotonin concentrations in hypothalamus,[5]; -100 min pre dose,84.644 % baseline
same,Norepinephrine concentrations in hypothalamus,[6]; 3 HOUR AVE,182.01 % baseline
same,Norepinephrine concentrations in hypothalamus,[6]; 20 min post dose,221.458 % baseline
same,Norepinephrine concentrations in hypothalamus,[6]; 60 min post dose,286.925 % baseline
same,Norepinephrine concentrations in hypothalamus,[6]; 100 min post dose,186.090 % baseline
same,Norepinephrine concentrations in hypothalamus,[6]; 140 min post dose,130.369 % baseline
same,Norepinephrine concentrations in hypothalamus,[6]; 180 min post dose,123.480 % baseline
same,Norepinephrine concentrations in hypothalamus,[6]; 220 min post dose,115.795 % baseline
same,Norepinephrine concentrations in hypothalamus,[6]; -40 min pre dose,110.416 % baseline
same,Norepinephrine concentrations in hypothalamus,[6]; -80 min pre dose,95.746 % baseline
same,Norepinephrine concentrations in hypothalamus,[6]; -120 min pre dose,93.838 % baseline

# — patent US20060276412A1, “METHODS AND COMPOSITIONS FOR MANAGING PSYCHOTIC DISORDERS” (priority 2005, published 2006)
